Data reported in article PMC6151561, “Rapid Identification of Dipeptidyl Peptidase-IV (DPP-IV) Inhibitory Peptides from Ruditapes philippinarum Hydrolysate” (Molecules : A Journal of Synthetic Chemistry and Natural …, 2017).

By UniProt entry, the sequences of proteins in these tests, tags left out. Where a name states a change or a piece, a line headed by the entry shows the natural chain unless it says otherwise.
UniProt P22411: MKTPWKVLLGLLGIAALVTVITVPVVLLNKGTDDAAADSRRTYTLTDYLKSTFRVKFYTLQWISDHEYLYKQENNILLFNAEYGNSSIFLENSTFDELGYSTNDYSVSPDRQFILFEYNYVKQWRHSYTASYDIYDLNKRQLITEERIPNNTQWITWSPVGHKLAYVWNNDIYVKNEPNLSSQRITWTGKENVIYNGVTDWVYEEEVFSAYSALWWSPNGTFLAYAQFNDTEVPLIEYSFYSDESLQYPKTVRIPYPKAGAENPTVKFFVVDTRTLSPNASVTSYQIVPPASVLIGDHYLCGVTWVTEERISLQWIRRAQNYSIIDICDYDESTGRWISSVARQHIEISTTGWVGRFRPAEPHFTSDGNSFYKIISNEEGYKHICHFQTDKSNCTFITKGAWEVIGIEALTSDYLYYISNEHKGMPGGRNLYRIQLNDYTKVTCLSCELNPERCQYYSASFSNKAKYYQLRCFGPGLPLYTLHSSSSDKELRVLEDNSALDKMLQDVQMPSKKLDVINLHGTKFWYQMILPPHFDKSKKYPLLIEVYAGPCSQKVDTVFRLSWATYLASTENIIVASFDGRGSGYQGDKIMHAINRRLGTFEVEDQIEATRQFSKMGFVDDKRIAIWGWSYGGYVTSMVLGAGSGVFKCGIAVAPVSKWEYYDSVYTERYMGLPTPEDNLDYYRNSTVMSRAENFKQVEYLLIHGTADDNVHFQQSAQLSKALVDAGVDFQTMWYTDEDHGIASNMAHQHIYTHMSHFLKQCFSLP

Biological target: T1, porcine DPP-IV (Sus scrofa, UniProt P22411)
T1 construct: purchased Sigma Chemical Co. (St. Louis, MO, USA)
Assay: DPP-IV inhibitory activity assay (Gly-Pro-p-nitroanilide substrate, absorbance 405 nm)
Format: biochemical
Details: chemically synthesized peptides; diprotin A positive control
Excerpt: Papain (from papaya, 8 × 10^5 units/g of protein), trypsin (from porcine pancreas, 2.5 × 10^5 units/g of protein), pepsin (from porcine gastric mucosa, 1 × 10^4 units/g of protein), flavourzyme (from […], 2 × 10^4 units/g of protein), and alcalase (from Bacillus licheniformis, 2 × 10^5 units/g of protein) were purchased from […] Biological Tech., Ltd. (Nanjing, China). […] (St. Louis, MO, USA). Mass spectrometry (MS)-grade water, acetonitrile (ACN), and trifluoroacetic acid (TFA) were purchased from Tedia Company Inc. (Fairfield, CT, USA). All other reagents were obtained from Sigma. All reagents were of analytical grade. DPP-IV inhibitory activity was measured as previously described by Zhang with minor modifications. Briefly, a 25 μL sample (diluted in 100 mM Tris-HCl buffer at pH 8.0) was mixed with 25 μL Gly-Pro-p-nitroanilide (1.6 mM) and pre-incubated at 37 °C for 10 min. […] The reaction was terminated by adding 100 μL of 1 M sodium acetate buffer at pH 4.0. The absorbance of each reaction was measured at 405 nm. Diprotin A ([…]) was used as a reference inhibitor. The percent DPP-IV inhibition was calculated according to the following equation: […] The DPP-IV inhibitory activity of these chemically synthesized peptides was determined as described in Section 3.3.

- IC50: 13.1 µM
Structure (SMILES): CC[C@H](C)[C@H](N)C(=O)N1CCC[C@H]1C(=O)N[C@H](C(=O)O)[C@@H](C)CC [diprotin A, Ile-Pro-Ile, reference compound]
